The text below walks through data of paper PMC6203815 (2018).

This assay addresses T1, Pfs48/45 6C domain (NF54) (Plasmodium falciparum).
T1 chain: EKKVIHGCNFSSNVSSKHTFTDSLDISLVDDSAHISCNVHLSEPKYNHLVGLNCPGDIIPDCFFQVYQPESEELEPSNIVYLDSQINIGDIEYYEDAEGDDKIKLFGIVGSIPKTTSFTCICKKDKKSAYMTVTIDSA
Kind of assay: BLI. For orientation: In BLI a coated tip is dipped into the sample, and binding shifts an interference pattern.

For orientation: Kd means the concentration at which binding is half-saturated. A lower Kd goes with higher affinity.

B1: 85RF45.1 Fab (Fab, V domains shown)
VH: EVQLVESGGGLLQPGRSLKLSCVASGFTFNNYWMSWIRQAPGKGLEWIASISNIGGTIYYPDSVKGRFTISRDSAQNTLYLQMNSLRSEDTATYYCTRDLRMSDYFDYWGQGVMVTVSS
VL: QFVLSQPNSVSTNLGSTVKLSCKRSTGNIGSNYVSWYQHHEGRSPTTMIYRDDQRPDGVPDRFSGSIDRSSNSALLTIDNVQTEDEAAYFCHSYSTGMYIFGGGTKLTVL
modifications: N-linked glycan at N303 (a NAG residue left after Endo H treatment in the crystals)
Molecule B1 showed an equilibrium dissociation constant (Kd) of 3.2 nM.
